Experiments:
[1] = target: 5-hydroxytryptamine receptor 2A (Homo sapiens, UniProt P28223); experiment: Displacement of [3H]Ketanserin from human 5-HT2A receptor expressed in HEK293 cells by scintillation counting analysis; assay type: cell-based
[2] = target: 5-hydroxytryptamine receptor 2C (Homo sapiens, UniProt P28335); experiment: Displacement of [3H]Mesulergine from human 5-HT2C-INI receptor expressed in HEK293 cells by scintillation counting analysis; assay type: cell-based

Protein sequences, listed by entry. Tags and fused reporters are not part of them. Lines headed by an entry give the natural chain unless they say otherwise; changes in a name come on top.
UniProt P28223, whole entry: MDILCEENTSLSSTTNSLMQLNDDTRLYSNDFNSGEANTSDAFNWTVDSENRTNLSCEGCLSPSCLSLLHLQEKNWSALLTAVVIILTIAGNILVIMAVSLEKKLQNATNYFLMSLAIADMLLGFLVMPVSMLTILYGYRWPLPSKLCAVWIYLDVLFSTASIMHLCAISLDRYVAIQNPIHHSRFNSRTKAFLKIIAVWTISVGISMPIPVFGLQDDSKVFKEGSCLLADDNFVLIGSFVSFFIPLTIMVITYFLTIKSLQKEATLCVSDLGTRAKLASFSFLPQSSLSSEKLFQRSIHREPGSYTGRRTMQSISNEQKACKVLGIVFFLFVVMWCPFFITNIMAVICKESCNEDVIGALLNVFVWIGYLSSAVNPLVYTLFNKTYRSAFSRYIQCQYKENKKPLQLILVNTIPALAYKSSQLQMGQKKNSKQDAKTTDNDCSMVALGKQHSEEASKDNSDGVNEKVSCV
UniProt P28335: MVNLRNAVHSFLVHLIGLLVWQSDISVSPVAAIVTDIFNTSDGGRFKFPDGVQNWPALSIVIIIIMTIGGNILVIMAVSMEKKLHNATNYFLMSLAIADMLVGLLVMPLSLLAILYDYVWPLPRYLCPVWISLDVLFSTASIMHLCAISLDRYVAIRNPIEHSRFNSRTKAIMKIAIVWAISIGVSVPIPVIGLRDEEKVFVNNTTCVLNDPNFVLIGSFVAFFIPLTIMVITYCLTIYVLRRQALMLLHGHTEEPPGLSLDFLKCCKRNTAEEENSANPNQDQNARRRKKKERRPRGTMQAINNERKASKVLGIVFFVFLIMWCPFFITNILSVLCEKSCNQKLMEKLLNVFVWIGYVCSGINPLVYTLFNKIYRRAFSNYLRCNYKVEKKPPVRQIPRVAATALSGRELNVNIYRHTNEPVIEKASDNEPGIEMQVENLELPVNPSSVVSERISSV

| Structure (SMILES) | Ki [1] [nM] | Ki [2] [nM] |
| --- | --- | --- |
| CN(C)[C@H]1Cc2ccccc2[C@H](c2cccc(F)c2)C1 | 320 |  |
| CN(C)[C@H]1Cc2ccccc2[C@H](c2cccc(-c3ccccc3)c2)C1 | 650 |  |
| CN(C)[C@H]1Cc2ccccc2[C@H](C2CCCCCCC2)C1 | 370 | 800 |
